Experimental data: PubChem BioAssay AID743214 (The Scripps Research Institute Molecular Screening Center, 2013)
The list shows a part of the results, in another mix than the full data. Activity calls are given as the source filed them.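 How the source made its calls: active means mean triplicate inhibition above the solvent-only control wells' mean plus 3 SD (cut at about 12% in these data); inactive means the rest.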

By UniProt entry, the sequences of proteins in these tests, tags left out. Residues count along the entry.
UniProt P78536, 215-824 limits assumed: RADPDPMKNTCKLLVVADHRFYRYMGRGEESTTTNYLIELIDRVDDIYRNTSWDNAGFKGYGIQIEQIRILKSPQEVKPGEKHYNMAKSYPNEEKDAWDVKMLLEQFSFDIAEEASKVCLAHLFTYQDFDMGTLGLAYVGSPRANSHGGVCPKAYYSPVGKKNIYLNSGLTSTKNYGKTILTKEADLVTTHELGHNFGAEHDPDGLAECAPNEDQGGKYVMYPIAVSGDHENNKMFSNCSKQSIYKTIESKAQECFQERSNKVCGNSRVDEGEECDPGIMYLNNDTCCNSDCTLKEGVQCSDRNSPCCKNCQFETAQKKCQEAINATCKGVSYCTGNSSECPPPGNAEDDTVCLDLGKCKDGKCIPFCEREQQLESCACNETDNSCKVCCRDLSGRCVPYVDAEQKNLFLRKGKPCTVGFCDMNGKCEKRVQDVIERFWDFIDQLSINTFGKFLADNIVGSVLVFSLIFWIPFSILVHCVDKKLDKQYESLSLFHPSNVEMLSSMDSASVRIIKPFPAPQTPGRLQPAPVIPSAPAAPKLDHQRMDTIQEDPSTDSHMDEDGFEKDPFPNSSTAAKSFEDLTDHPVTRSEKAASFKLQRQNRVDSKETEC

What follows are compounds tested against Disintegrin and metalloproteinase domain-containing protein 17 (Homo sapiens) (UniProt P78536) (assay: ADAM17 inhibitors, counter-screen for ADAM10 exosite inhibitor project, biochemical, QFRET, high throughput (AID 743214;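 further: 0% = DMSO wells and 100% = marimastat wells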)). Settings: ADAM17 QFRET peptide cleavage, EDANS fluorescence; at 6.95 µM; hits give high values.
Procedure, shortened: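 System: ADAM17 protease, QFRET substrate; control set: marimastat 1 µM and DMSO wells; signal: EDANS fluorescence, excitation 359 nm, emission 460 nm; incubation: 30 min compound–enzyme preincubation, then 3 h reaction, both 25 °C; compound: single nominal compound dose of 6.95 µM; replicates: three repeats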
For `CCCCn1nnnc1C(c1cccc2ccccc12)N1CCC(n2c(=O)[nH]c3ccccc32)CC1` (stereo unspecified), the inhibition was inactive: 2.81%.
